Source: ChEMBL document CHEMBL1126706, “Structure-activity relationship of N-[2-(dimethylamino)-6-[3-(5-methyl-4-phenyl-1H-imidazol-1-yl)propoxy] phenyl]-N'-pentylurea and analogues. Novel potent inhibitors of acyl-CoA:cholesterol O-acyltransferase with antiatherosclerotic activity” (J Med Chem, 1993)

Molecular target: T1, Acyl-CoA:cholesterol acyltransferase (Oryctolagus cuniculus, UniProt Q95214)
T1 sequence (Q95214 whole entry): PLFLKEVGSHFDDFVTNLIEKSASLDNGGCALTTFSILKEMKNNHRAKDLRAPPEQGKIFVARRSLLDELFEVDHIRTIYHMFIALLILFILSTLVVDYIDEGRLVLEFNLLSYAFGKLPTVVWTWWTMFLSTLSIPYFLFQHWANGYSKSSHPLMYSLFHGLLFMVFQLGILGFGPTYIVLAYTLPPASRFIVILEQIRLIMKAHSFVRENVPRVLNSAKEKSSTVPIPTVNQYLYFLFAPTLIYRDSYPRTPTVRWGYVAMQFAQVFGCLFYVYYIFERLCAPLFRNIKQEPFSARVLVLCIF
Assay: Tested for inhibition against acyl coenzyme A:cholesterol acyltransferase from rabbit aorta homogenate.
Type: tissue-based
Outline: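 Arterial enzyme: aortae of cholesterol-fed NZW rabbits homogenized in 154 mM potassium phosphate pH 7.4 with 2.4 mg/mL BSA, 300g 5 min supernatant. Endogenous cholesterol plus 5 μM [1-14C]oleoyl-CoA; compound preincubated 3 min at 37 °C, enzyme (8 mg protein/mL) added, 5 min reaction, stopped with chloroform/methanol 2:1. IC50 from triplicate tubes per concentration.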

SMILES: CCCCCCCN(Cc1ccc(CC(C)(C)C)cc1)C(=O)Nc1ccc(F)cc1F [CL-277082]
- IC50: 900 nM
